Literature values as cited in paper PMC9054915 (Cancer Chemotherapy and Pharmacology, 2022).

The chains behind the UniProt entries cited, without tags or fusion partners.
UniProt P08684, whole entry: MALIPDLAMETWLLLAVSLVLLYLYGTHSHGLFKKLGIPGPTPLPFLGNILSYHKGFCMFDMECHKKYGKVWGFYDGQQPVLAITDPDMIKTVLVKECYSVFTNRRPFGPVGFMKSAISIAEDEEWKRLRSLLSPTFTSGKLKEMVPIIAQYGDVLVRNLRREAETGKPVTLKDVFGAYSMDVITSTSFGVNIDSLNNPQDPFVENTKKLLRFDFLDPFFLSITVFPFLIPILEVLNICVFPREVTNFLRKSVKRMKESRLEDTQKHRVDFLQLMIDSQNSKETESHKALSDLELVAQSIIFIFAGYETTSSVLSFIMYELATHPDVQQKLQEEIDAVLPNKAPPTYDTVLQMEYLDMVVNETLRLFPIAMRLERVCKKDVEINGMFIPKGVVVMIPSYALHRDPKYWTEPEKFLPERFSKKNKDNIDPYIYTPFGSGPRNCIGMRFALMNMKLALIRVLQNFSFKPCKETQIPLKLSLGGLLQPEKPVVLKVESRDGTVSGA

How the values were obtained:
CYP3A4 [1] = target: T1, CYP3A4 (Homo sapiens, UniProt P08684); design: caused by the saturation of CYP3A4 in the gut and liver; from tissue; host or cells: gut and liver of patients (in vivo) and Simcyp virtual healthy volunteer population; conditions: classification of the CYP3A4 inducer used in the simulation; cited from earlier work
CYP3A4 [2] = target: T1, CYP3A4; conditions: geometric mean ratio (90% CI), cited from earlier work
CYP3A4 [3] = target: T1, CYP3A4; design: caused by the saturation of CYP3A4 in the gut and liver; from tissue; host or cells: gut and liver of patients (in vivo) and Simcyp virtual healthy volunteer population; conditions: classification of the CYP3A4 inhibitor used in the simulation; cited from earlier work

| SMILES | Induction of CYP3A4 (CYP3A4 [1]) | AUC ratio Observation (CYP3A4 [2]; ipatasertib (100 mg single dose) AUC0–∞ with/without itraconazole 200 mg QD) | Cmax ratio Observation (CYP3A4 [2]; ipatasertib (100 mg single dose) Cmax with/without itraconazole 200 mg QD) | Inhibition of CYP3A4 (CYP3A4 [3]) |
| --- | --- | --- | --- | --- |
| O=C1Nc2ccc(Cl)cc2[C@@](C#CC2CC2)(C(F)(F)F)O1 [Efavirenz] | Moderate |  |  |  |
| CCC(C)n1ncn(-c2ccc(N3CCN(c4ccc(OCC5COC(Cn6cncn6)(c6ccc(Cl)cc6Cl)O5)cc4)CC3)cc2)c1=O (stereo not shown) [Itraconazole, reference compound] |  | 5.45 | 2.26 | Strong |
